These results are taken from patent US20260382613A1, “METHODS OF TREATING ACUTE LEUKEMIA” (published 2026).

Like-named read-outs stand apart in the source and are kept apart here.

Series [1] relates to MEIS1. As to conditions: for reduction of MEIS1 expression: end of Cycle 1.
Series [2] relates to Wild-type menin. As to conditions: menin-MLL binding assay; cited from earlier work.
Series [3] can be described thus: patient disposition in Phase 1 study.
Series [4] is described as follows: preclinical differentiation and apoptosis. The settings on record: preclinical studies.
The mark [5] stands for this setting: NPM1-m 600 mg N=20, cutoff 12 Apr 2023.

The IC50 is the concentration that gives 50% inhibition. As to `CNc1nc(NC2CCN(Cc3ccc4c(cc(C#N)n4C[C@H](C)N4CCN(S(C)(=O)=O)CC4)c3C)CC2)c2cc(CC(F)(F)F)sc2n1`, the “reduction of MEIS1 expression” value in series [1] (200 mg, two patients) is “no reduction was detected”. In addition, the “reduction of MEIS1 expression” value in series [1] (600 mg, four patients) was “more than 85%”. For the same compound, the “target gene expression at 800 mg” value in series [1] (800 mg) was “did not provide evidence of further knockdown”. For the same compound, in series [2], the concentration for half-maximal inhibition (IC50) was 4.1 nM. Moreover, in series [3] (setting [5]), the “Treatment discontinuation - Adverse event” value is 5 (25) %, the “Treatment discontinuation - Death” value is 1 (5) %, the “Treatment discontinuation - Disease progression (including clinical)” value is recorded as 9 (45) % and the “relatedness of adverse events leading to discontinuation” value is reported as “^bAll adverse events leading to discontinuation were not considered study drug related”. In addition, the “treatment discontinued due to death” value in series [3] (NPM1-m 600 mg N=20, cutoff 30 Aug 2023) is recorded as 5%. Moreover, in series [3] (Ph1b 200 mg n=17), the “Treatment discontinuation - Adverse Events” value is 2 (11.8) %, the “Treatment discontinuation - Death” value is 4 (23.5) % and the “Treatment discontinuation - Disease progression (inc. clinical)” value is 5 (29.4) %. For the same compound, in series [3] (Ph1b 600 mg n=36), the “Treatment discontinuation - Adverse Events” value is given as 4 (11.1) %, the “Treatment discontinuation - Death” value is reported as 3 (8.3) % and the “Treatment discontinuation - Disease progression (inc. clinical)” value is recorded as 11 (30.6) %. For the same compound, the “patients discontinued due to an adverse event” value in series [3] (Ph1b, 53 patients) was “six”. Further, the “terminal differentiation and scheduled apoptosis” value in series [4] was “drive terminal differentiation and scheduled apoptosis”.
